{"source": "patent US11548915B2", "about": "“Composition for overcoming resistance to EGFR-targeting agent” (Pinetree Therapeutics, Inc., priority 2016, dated 2023)", "key": {"[1]": {"tested_on": "FAK, Src and Akt phosphorylation in Ctx^R pancreatic cancer cell lines (BxPC-3, PANC-1, SW1990)", "assay": "Western blot of phosphorylation levels after Ctx treatment", "format": "cell-based", "conditions": "Ctx 1 μM or 0.1 μM, 24 hours", "method": "For Western blot analysis, the cell lysate was incubated with antibodies, which recognize pEGFR (Y1173), EGFR, pFAK, FAK, pSrc, Src, pAkt, Akt, pERK1/2, ERK1/2 and β-actin, respectively, at 4° C. for 12 hours, and incubated with HRP-conjugated secondary antibodies (SantaCruz) at 25° C. for 1 hour, followed by analysis."}, "Ctx^R BxPC-3 and PANC-1": {"tested_on": "Ctx^R BxPC-3 and PANC-1", "assay": "FACS analysis of receptor endocytosis", "conditions": "2 μM, 0-60 min, 37° C., serum-free; FACS cell surface level"}, "PANC-1": {"tested_on": "PANC-1", "assay": "Annexin V-FITC apoptosis assay (FACS)", "conditions": "PANC-1 (Ctx^R); 4 μM, 48 hours"}, "BxPC-3": {"tested_on": "BxPC-3", "assay": "Annexin V-FITC apoptosis assay (FACS)", "conditions": "BxPC-3 (Ctx^R); 4 μM, 48 hours"}}, "data": [{"substance": "cetuximab [Ctx]", "values": [{"measurement": "phosphorylation levels of FAK, Src and Akt", "setting": "[1]", "value": "maintain high phosphorylation levels of FAK, Src and Akt"}, {"measurement": "endocytosis of EGFR", "setting": "Ctx^R BxPC-3 and PANC-1", "value": "increased the endocytosis of EGFR"}, {"measurement": "apoptosis (annexin V-FITC)", "setting": "PANC-1", "value": "induced apoptosis, unlike Ctx"}, {"measurement": "apoptosis (annexin V-FITC)", "setting": "BxPC-3", "value": "induced apoptosis, unlike Ctx"}]}]}
